IC50 data for four compounds are collected here from patent US9085540B2, “Pyrazinecarboxamide compound” (Astellas Pharma Inc., priority 2012, dated 2015).

Amino acid sequences for entries named in this document (tags omitted). Residues count along the entry.
UniProt P00533, 25-1210 T790M/L858R: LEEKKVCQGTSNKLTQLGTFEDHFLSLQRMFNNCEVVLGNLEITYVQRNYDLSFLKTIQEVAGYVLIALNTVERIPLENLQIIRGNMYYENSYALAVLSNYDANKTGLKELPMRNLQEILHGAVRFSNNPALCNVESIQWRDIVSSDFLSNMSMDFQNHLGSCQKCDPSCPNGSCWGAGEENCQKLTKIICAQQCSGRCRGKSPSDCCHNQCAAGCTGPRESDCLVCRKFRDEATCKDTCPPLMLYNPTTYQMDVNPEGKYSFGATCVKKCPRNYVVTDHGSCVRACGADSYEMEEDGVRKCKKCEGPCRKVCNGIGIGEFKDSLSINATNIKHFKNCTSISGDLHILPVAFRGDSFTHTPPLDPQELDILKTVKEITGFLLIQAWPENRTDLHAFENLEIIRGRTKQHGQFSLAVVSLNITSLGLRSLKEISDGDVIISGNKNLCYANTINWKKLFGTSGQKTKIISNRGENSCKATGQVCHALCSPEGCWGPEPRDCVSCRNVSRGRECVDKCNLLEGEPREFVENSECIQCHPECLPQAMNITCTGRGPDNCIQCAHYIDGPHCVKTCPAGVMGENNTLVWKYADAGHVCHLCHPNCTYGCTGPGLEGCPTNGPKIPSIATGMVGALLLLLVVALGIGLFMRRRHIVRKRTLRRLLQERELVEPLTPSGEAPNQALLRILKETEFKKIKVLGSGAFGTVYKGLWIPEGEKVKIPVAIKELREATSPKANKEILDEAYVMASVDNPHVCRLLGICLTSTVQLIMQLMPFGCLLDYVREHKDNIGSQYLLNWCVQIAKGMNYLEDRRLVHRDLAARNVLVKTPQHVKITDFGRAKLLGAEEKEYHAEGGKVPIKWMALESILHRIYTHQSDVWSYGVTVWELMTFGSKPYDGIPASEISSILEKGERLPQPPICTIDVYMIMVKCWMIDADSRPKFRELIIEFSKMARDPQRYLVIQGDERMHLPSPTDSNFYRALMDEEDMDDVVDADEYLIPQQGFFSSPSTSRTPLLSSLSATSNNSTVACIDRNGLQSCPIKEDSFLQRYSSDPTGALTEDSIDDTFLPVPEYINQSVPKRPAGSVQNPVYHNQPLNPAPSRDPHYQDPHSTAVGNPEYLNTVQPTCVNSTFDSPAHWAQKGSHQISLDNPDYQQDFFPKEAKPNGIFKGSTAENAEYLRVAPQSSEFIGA

One test deals with EGFR [T790M/L858R] (Homo sapiens (Human), UniProt P00533, L858R/T790M). Description: Inhibitory activity on EGFR T790M/L858R mutation kinase (LabChip peptide substrate phosphorylation). Type of test: biochemical. As to conditions: EGFR [T790M/L858R] enzyme, 2 hours preincubation, ATP 1000 μM. As to the method: The phosphorylation activity on the peptide substrate of EGFR was investigated using LabChip (trademark) Systems (Caliper Life Sciences, Inc.). […] (Carna Biosciences, Inc.) was used. […] Then, the substrate and the ATP solution were added thereto, followed by reaction for 1 hour. An ATP concentration of 1000 μM was used. A reaction liquid containing the enzyme protein but no test compound (in which the DMSO alone was added as a solvent at 0.4% in place of the test compound) was prepared, followed by reaction in the same manner with or without ATP addition. […] The concentration causing 50% inhibition (IC50) was calculated for the test compound by a logistic regression method.

Test [1] relates to Ba/F3 cells expressing EGFR T790M/L858R mutation kinase. Description: Inhibition of EGFR T790M/L858R mutation kinase-dependent cell proliferation (Cell Titer-Glo). The format is cell-based. As to conditions: Mus musculus, BaF3, 48 h, cultured 2 days. As to the method: In a 96-well plate (Iwaki), Ba/F3 cells were seeded at 500 cells per well in an RPMI1640 medium (Invitrogen) containing 10% fetal bovine serum, followed by the addition of the test compound (final concentrations ranging from 1 μM to 0.1 nM) and DMSO which was a solvent of the test compound as a negative control. In the presence of 5% CO2, the cells were cultured at 37° C. for 2 days. A cell counting reagent (Cell Titer-Glo; Promega) was added thereto, and the light emitting intensity was measured using a luminometer (Envison or ARVO; PerkinElmer Inc.). […] The inhibitory rate of the test compound was calculated and the concentration causing 50% inhibition (IC50 value) was determined by a logistic regression method.
(ATP-based viability assays read luminescence as a measure of living cells.)

Each structure is given as a SMILES string.

As a reminder, the IC50 is the point on the concentration scale where inhibition reaches its midpoint. Read a high IC50 as weaker potency in that assay. Turning to `C=CC(=O)N1CCC(c2nc(Nc3ccc(N4CCC(N5CCN(C)CC5)CC4)c(C)c3)c(C(N)=O)nc2CC)CC1` [Example 24], the IC50 is 1.1 nM against EGFR [T790M/L858R] and 2.1 nM in test [1].

Take `C=CC(=O)Nc1cccc(Oc2nc(Nc3ccc(N4CCN(C)[C@@H](C)C4)cc3)c(C(N)=O)nc2CC)c1` [Example 63]: the IC50 against EGFR [T790M/L858R] worked out at 1.8 nM; in test [1] it was 1.2 nM.

With `C=CC(=O)Nc1cccc(Oc2nc(Nc3ccc(N4CCN(C)[C@H](C)C4)cc3)c(C(N)=O)nc2CC)c1` [Example 64], the IC50 against EGFR [T790M/L858R] was 1.7 nM; in test [1], 0.56 nM.

On to `C=CC(=O)Nc1cccc(Oc2nc(Nc3ccc(N4CCN(CC)CC4)cc3)c(C(N)=O)nc2CC)c1` [Example 43], for which the IC50 came out at 1.4 nM at EGFR [T790M/L858R] and 0.66 nM in test [1].
